Experimental data: PubChem BioAssay AID827 (SRMLSC, 2007)
Only a part is listed here, and it is no random draw. Some tests of the compounds listed are not included; inactive here does not mean inactive elsewhere. Activity calls are given as the source filed them.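 The calls were made as follows: active = viability at or below a set limit, 4 SD under the median of all tested compounds (cut at about 3.7% in these data); inactive = the rest.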

Assay: growth suppression of PTEN-null HCT116, primary screen, cell-based, CellTiter-Glo (AID 827);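 also: PTEN knockout HCT116 line with beta catenin targeted HCT116 as companion control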
Details: 60 h, at 10 µM, active compounds read low

Structure (SMILES)	viability
CC(C)N1C(=O)CC2(CCN(CCOC(=O)C(O)(c3ccccc3)c3ccccc3)CC2)C1=O	inactive: 85%
CN(C)C1CCCC1OC(=O)C(O)(c1ccccc1)c1ccccc1 (stereo not given)	inactive: 94.8%
CCN1CCCC(OC(=O)C2(O)c3ccccc3C=Cc3ccccc32)C1 (stereo not given)	inactive: 94%
O=C(OC1CN2CCC1CC2)C(CO)(c1ccccc1)c1ccccc1 (stereo not given)	inactive: 103%
CN(C)c1cccc(C(=O)NCC2(N(C)C)CCCCC2)c1	inactive: 82.7%
